Laboratory results reported in ChEMBL document CHEMBL4725358 (J Med Chem, 2020).
Calls of active or inactive are those of the source. The rule behind the calls is not given here.

Sequences of proteins named here, by UniProt entry; tags and fusion partners are left off. A change or cut given only in a name is not applied to a line headed by its entry.
UniProt Q9R1K6: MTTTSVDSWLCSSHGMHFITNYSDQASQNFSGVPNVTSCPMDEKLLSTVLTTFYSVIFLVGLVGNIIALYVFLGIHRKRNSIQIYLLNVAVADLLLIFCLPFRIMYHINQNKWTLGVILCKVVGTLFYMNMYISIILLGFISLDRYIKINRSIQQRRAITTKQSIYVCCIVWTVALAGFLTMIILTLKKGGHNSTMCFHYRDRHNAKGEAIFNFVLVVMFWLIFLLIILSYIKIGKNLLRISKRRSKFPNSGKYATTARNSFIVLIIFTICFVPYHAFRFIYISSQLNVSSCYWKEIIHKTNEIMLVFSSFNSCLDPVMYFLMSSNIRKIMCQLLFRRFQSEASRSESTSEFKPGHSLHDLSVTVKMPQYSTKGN
UniProt Q8BFU7: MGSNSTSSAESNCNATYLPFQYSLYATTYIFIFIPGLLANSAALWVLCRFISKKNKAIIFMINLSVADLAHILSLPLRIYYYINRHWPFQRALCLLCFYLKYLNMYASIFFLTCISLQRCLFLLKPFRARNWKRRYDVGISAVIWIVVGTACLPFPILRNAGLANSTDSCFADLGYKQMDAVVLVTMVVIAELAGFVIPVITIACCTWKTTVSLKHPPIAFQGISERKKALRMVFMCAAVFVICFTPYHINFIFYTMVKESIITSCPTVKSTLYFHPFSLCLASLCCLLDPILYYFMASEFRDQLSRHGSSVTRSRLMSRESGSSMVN

Tests used:
Assay type in all cases: cell-based
[1] = molecular target: Probable G-protein coupled receptor 34 (Mus musculus) (UniProt Q9R1K6); assay: Agonist activity at mouse GPR34 expressed in HEK293 cells co-transfected with AP-TGFalpha/Galphaq/i1 assessed as induction of ectodomain shedding of membrane bound AP-TGFalpha after 1 hr by p-NPP substrate based microplate reader analysis relative to positive control; conditions: filed as agonist
Outline: (§1)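 HEK293 cells transiently transfected with AP-TGFα, chimeric Gα and mouse GPR34 vectors, then treated with compound. Empty-vector cells (AP-TGFα plus chimeric Gα) served as background. Receptor-specific AP-TGFα release was taken after subtracting that background, and concentration-response curves gave EC50 and Emax. Mean and SEM of 3−8 independent experiments.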

[2] = molecular target: Putative P2Y purinoceptor 10 (Mus musculus) (UniProt Q8BFU7); assay: Agonist activity at mouse P2Y10 expressed in HEK293 cells co-transfected with AP-TGFalpha/Galphaq/i1 assessed as induction of ectodomain shedding of membrane bound AP-TGFalpha after 1 hr by p-NPP substrate based microplate reader analysis relative to positive control; conditions: filed as agonist
Outline: (§2)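 Run the same way as the GPR34 shedding assay, but with a mouse P2Y10 expression vector in HEK293 cells alongside AP-TGFα and chimeric Gα. Receptor-specific AP-TGFα release was found by subtracting the empty-vector background. EC50 and Emax came from concentration-response curves. Mean and SEM of 3−8 independent experiments.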

[3] = molecular target: Probable G-protein coupled receptor 34 (Mus musculus) (UniProt Q9R1K6); assay: Agonist activity at mouse GPR34 expressed in HEK293 cells co-transfected with AP-TGFalpha/Galphaq/i1 assessed as induction of ectodomain shedding of membrane bound AP-TGFalpha after 1 hr by p-NPP substrate based microplate reader analysis relative to control; outline: as §1
[4] = molecular target: T1, G protein-coupled receptor 34a (Danio rerio) (UniProt Q6XCC7); assay: Agonist activity at zebrafish GPR34 type a expressed in HEK293 cells co-transfected with AP-TGFalpha/Galphaq/i1 assessed as induction of ectodomain shedding of membrane bound AP-TGFalpha after 1 hr by p-NPP substrate based microplate reader analysis relative to control
T1 sequence (whole entry): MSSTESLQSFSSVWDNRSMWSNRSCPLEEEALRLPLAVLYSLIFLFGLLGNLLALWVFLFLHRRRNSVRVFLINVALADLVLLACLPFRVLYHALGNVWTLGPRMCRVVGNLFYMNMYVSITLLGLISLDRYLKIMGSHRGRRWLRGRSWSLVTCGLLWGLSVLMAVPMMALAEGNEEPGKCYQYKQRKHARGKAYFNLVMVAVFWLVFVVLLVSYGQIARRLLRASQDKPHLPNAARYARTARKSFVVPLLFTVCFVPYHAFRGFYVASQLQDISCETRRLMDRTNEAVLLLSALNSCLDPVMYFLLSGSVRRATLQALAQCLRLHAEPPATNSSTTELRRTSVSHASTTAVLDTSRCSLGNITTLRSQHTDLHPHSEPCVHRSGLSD

[5] = molecular target: Putative P2Y purinoceptor 10 (Mus musculus) (UniProt Q8BFU7); assay: Agonist activity at mouse P2Y10 expressed in HEK293 cells co-transfected with AP-TGFalpha/Galphaq/i1 assessed as induction of ectodomain shedding of membrane bound AP-TGFalpha after 1 hr by p-NPP substrate based microplate reader analysis relative to control; outline: as §2
[6] = molecular target: T2, G protein-coupled receptor 34b (Danio rerio) (UniProt B0S6P9); assay: Agonist activity at zebrafish GPR34 type b expressed in HEK293 cells co-transfected with AP-TGFalpha/Galphaq/i1 assessed as induction of ectodomain shedding of membrane bound AP-TGFalpha after 1 hr by p-NPP substrate based microplate reader analysis relative to control
T2 sequence (whole entry): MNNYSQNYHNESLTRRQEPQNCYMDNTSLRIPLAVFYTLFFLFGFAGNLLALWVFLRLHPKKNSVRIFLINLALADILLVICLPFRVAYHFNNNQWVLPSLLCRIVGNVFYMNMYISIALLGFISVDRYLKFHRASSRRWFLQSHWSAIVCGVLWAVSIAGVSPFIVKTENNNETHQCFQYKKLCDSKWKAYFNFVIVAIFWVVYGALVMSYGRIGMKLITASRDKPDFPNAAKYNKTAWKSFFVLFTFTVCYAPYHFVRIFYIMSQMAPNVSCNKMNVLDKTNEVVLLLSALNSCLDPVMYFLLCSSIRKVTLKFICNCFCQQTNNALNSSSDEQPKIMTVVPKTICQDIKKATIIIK

Structure (SMILES) | fold change (FC) [1] | fold change (FC) [2] | Emax [3] | Emax [4] | Emax [5] | Emax [6]
CCCCCCCC/C=C\CCCCCCCC(=O)OC[C@@H](O)COP(=O)(O)OC[C@H](N)C(=O)O | 0.33 | 0.083 | 8.3% |  |  | 
CCOC[C@H](COC(=O)CCc1ccccc1OCc1cccc(Oc2ccccc2)c1)OP(=O)(O)OC[C@H](N)C(=O)O |  |  | 12.1% | inactive | inactive | 29%
